Source: patent US4742057A, “Antiallergic thiazole compounds” (Fujisawa Pharmaceutical Co., Ltd., priority 1985, dated 1988)

Tested on: SRS-A synthesis or release from peritoneal exudate cells
Assay: Anti-SRS-A activity (inhibition of SRS-A synthesis or release from peritoneal exudate cells)
Conditions: rat peritoneal exudate cells; Ca++-ionophore A23187 1 μg/ml; indomethacin 10 μg/ml; SRS-A read as contractility of isolated guinea pig ileum

Point of comparison: `CCC(=O)Nc1nc(CN2CCC(c3c[nH]c4ccc([N+](=O)[O-])cc34)CC2)cs1`, “Inhibitory Concentration IC50” value 0.22 µg/mL. Against it:
- O=C(Nc1nc(CN2CCC(c3c[nH]c4ccccc34)CC2)cs1)C1CC1 — 2.9-fold lower, 0.077 µg/mL
- CCCC(=O)Nc1nc(CN2CCC(c3c[nH]c4ccccc34)CC2)cs1 — within 1.5-fold, 0.18 µg/mL
- CCOC(=O)Nc1nc(CN2CCC(c3c[nH]c4ccccc34)CC2)cs1 — 1.6-fold higher, 0.36 µg/mL
- CCC(=O)Nc1nc(CN2CCC(c3c[nH]c4ccccc34)CC2)cs1 [Compound D, 4-[4-(3-Indolyl)piperidinomethyl]-2-propionylaminothiazole] — 4-fold higher, 0.89 µg/mL
- CC(C)C(=O)Nc1nc(CN2CCC(c3c[nH]c4ccccc34)CC2)cs1 — 3.4-fold higher, 0.75 µg/mL
